# Measured values: patent US11096891B2, “Hybrid muco-adhesive delivery systems and use thereof” (TECHNION RESEARCH & DEVELOPMENT FOUNDATION LIMITED, priority 2016, dated 2021)
# Test system: CAL-27 cells
# Test: Flow cytometry of fluorescently labeled Cetuximab binding
# Format: cell-based, human
# Conditions: 1 μg/ml and 0.5 μg/ml antibody
# Text: In order to examine the affinity of the Cetuximab to human tongue squamous cell carcinoma CAL-27 cells, the commercial antibody and its isotype control IgG antibody was fluorescently labeled.
# To optimize the amount of antibody required, staining of CAL-27 cells with decreasing antibody concentration was examined using cell cytometry (FIG. 22A).
# Next, the difference in antibody binding to normal human dermal fibroblasts (NHDF) versus cancer cells (CAL-27) was examined (FIG. 22B-D). The same concentrations of isotype control antibody were used.
# To examine the ability to deliver liposomes loaded with antibodies and to test the antibody affinity, CAL-27 cells were treated with Cetuximab loaded liposomes in comparison to IgG isotype control loaded liposomes and to free antibody (FIG. 22E). […] Liposomal delivery of proteins into cancer cells and to cancer cell membrane.
substance,measurement,value
Cetuximab: monoclonal antibody that targets the epidermal growth factor receptor (EGFR),"Fluorescence intensity of antibody binding, cancer cells versus NHDF",significantly higher than for NHDF
